This series is described as follows: Solubility under the assay conditions. Conditions: HDAC, BCL‐2 and cell assays; data not reliable, not reported. It counts as physicochemical. From the text:
With these promising results in hand, we elected to expand our library of dual BCL‐2/HDAC inhibitors. […] Alongside this study, we attempted to enhance the HDAC1 inhibitory activity of BD‐4‐213 through targeting the enzyme's foot‐pocket (Melesina et al. [2021]; Moradei et al. [2007]). We proposed to do this by grafting on a thiophene (AMC‐4‐074) or a phenyl ring (AMC‐4‐075) to the aniline ring of the ortho‐aminoanilide of BD‐4‐213, as guided by the ZBG in compound 2 (Figure 1A).

Entries after “also recorded” stand apart in the source; their conditions may differ.

With “2‐((1H‐pyrrolo[2,3‐b]pyridin‐5‐yl)oxy)‐N‐((4‐((4‐((3‐amino‐[1,1′‐biphenyl]‐4‐yl)carbamoyl)benzyl)amino)‐3‐nitrophenyl)sulfonyl)‐4‐(4‐((4′‐chloro‐5,5‐dimethyl‐3,4,5,6‐tetrahydro‐[1,1′‐biphenyl]‐2‐yl)methyl)piperazin‐1‐yl)benzamide [AMC‐4‐075]”, the “solubility under the assay conditions” value is given as “solubility proved problematic; also recorded: Limited solubility”.
